Test results taken from BindingDB's records for doi:10.1021/jm100669j (Pfizer, 2010).

Biological target: T1, Interstitial collagenase (Homo sapiens, UniProt P03956)
T1 sequence (P03956 whole entry): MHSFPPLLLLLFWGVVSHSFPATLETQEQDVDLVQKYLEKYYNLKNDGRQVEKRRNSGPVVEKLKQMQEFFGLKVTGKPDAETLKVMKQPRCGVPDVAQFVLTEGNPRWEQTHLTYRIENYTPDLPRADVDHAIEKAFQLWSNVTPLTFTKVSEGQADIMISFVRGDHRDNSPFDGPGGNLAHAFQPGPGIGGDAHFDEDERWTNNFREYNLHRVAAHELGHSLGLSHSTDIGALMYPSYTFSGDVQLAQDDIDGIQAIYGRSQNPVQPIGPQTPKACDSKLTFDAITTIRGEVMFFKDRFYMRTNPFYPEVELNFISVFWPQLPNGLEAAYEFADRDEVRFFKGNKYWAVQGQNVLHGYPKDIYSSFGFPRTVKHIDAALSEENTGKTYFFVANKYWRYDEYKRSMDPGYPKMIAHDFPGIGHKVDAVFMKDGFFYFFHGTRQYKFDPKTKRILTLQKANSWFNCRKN

Q: For `O=C(NO)C1(S(=O)(=O)c2ccc(Oc3ccc(C(F)(F)F)cc3)cc2)CCN(C2CC2)CC1`, which IC50 is on record?
A: > 10 µM
